In patent US9603820B2, “Ornithine aminotransferase inhibition with GABA analogues for treatment of hepatocellular carcinoma” (Northwestern University, priority 2014, dated 2017):

Tests used:
[1] = target: T1, OAT (Homo sapiens, UniProt P04181); details: prior art, FIG. 1; cited from earlier work
T1 sequence (P04181 36-439 limits assumed): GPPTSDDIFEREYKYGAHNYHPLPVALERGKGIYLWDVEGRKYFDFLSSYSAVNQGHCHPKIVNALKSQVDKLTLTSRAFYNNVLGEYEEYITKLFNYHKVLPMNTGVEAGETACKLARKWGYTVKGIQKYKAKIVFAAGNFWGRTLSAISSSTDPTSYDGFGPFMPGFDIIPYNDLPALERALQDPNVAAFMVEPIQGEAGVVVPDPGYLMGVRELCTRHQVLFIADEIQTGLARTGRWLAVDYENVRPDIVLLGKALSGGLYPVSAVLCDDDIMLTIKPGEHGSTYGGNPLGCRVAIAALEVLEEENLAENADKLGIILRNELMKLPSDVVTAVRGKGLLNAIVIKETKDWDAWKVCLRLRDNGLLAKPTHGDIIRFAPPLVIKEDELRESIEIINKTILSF

[2] = target: T2, ornithine aminotransferase (OAT) (Homo sapiens, UniProt P04181); assay: Time-dependent inactivation of OAT and dialysis of the inactivated enzyme; assay type: biochemical
T2 sequence (P04181 36-439 limits assumed): T1 sequence (P04181 36-439 limits assumed)
Protocol: OAT activity assays were carried out using as follows. OAT (0.25 μg) is incubated with various concentrations of gabaculine (0.1 μM, 1 μM, 5 μM, 10 μM) or CPP-115 (10 μM, 25 μM, 50 μM, 100 μM, 200 μM) in 100 mM potassium pyrophosphate buffer, pH 8.0, containing 1 mM alpha-ketoglutarate in a total volume of 20 μL at room temperature. At time intervals, 80 μL of assay solution containing PYCR1 (0.5 μg), 12.5 mM alpha-ketoglutarate, 1 mM NADH, 0.03 mM PLP, and 25 mM L-ornithine in 100 mM potassium pyrophosphate buffer, pH 8.0, are added to the incubation mixture and assayed for OAT activity.
OAT (30 μg) is pre-incubated for 24 h with 2 mM CPP-115 in 100 mM pyrophosphate buffer (pH 8.0) containing 5 mM alpha-ketoglutarate in a total volume of 60 μL at room temperature. OAT incubated without the inactivator serves as a control. […]
For the determination of KI and kinact values, the natural logarithm of the percentage of remaining OAT activity is plotted against the pre-incubation time at each inhibitor concentration to obtain the kobs (slope) value for each concentration. […] The initial rate constants for the inactivation at various concentrations of the two compounds are determined using nonlinear regression analysis.

## Gabaculine
[1]
  inactivation/inhibition of OAT (known compounds): also inactivate OAT with equal potency
[2]
  OAT inactivation, time and concentration dependence: time- and concentration-dependent
[2]; no activity returned upon dialysis for 48 h
  efficiency/potency as time-dependent irreversible inhibitor (inactivator) of OAT: most potent inactivator
